## Ab-14 light chain CDR variants: yeast mating affinities

Source: Engelhart et al. 2022 (doi:10.1038/s41597-022-01779-4), MIT Lincoln Laboratory and A-Alpha Bio; data file from the FLAb repository.

Binding partner: SARS-CoV-2 spike HR2 peptide, sequence PDVDLGDISGINAS.

Parent: Ab-14, a human scFv built as VH, a (GGGGS)3 linker, VL. Only the CDRs of the light chain vary.
VH: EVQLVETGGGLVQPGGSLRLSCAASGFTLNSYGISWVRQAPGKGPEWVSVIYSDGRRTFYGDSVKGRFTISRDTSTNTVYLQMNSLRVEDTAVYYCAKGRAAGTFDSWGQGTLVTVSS
VL: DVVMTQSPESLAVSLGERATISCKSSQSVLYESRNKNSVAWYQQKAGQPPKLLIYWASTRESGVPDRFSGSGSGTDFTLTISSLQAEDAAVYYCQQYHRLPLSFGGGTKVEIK

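The library (AAYL50) carries one to three amino acid substitutions per variant, with no insertions or deletions. AlphaSeq pools MATa yeast showing the antibodies with MATalpha yeast showing the peptide. The frequency of each diploid, read from paired DNA barcodes, reflects how well the two displayed proteins bind. A regression on co-assayed BCL2-family reference pairs converts the normalised counts of each replicate to an apparent Kd. There are three technical replicates.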

Sequences are complete VL domains. Values are log10 of the apparent Kd in nM; lower means stronger binding. Where no diploid with the target was found in that replicate, the entry reads "nd": below detection, most likely a poor binder, though not proof of it.

VL | log10 Kd (nM) by replicate | signal with controls
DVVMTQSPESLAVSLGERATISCKSSQSVLYESRNKNSVAWYQQKAGQPPKLLIYWAWTRRSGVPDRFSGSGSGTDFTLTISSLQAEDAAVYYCQQYGRLPLSFGGGTKVEIK | nd / 3.88 / nd | 0/9
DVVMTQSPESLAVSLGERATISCKSSQSVLYEERNKNSVAWYQQKAGQPPKLLIYWASTRESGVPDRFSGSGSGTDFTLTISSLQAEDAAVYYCRQYLRLPLSFGGGTKVEIK | nd / nd / nd | 0/9
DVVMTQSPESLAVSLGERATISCTSSQSRLYESRNKNSVAWYQQKAGQPPKLLIYWARTRESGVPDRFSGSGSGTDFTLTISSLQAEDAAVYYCQQYHRLPLSFGGGTKVEIK | nd / 3.58 / nd | 3/9 (4.66)
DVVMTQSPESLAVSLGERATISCKSVQSVLYASRNKNSVAWYQQKAGQPPKLLIYWASTQESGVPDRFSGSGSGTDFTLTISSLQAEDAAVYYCQQYHRLPLSFGGGTKVEIK | nd / nd / nd | 1/9 (3.96)
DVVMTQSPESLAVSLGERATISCKCSQSVLYESRNCNSVAWYQQKAGQPPKLLIYWASTRESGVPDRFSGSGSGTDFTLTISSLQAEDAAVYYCQQYHRLNLSFGGGTKVEIK | 2.04 / 2.20 / 2.33 | 2/9 (4.15)
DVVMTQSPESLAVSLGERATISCKSSSSVLYESRNKNSTAWYQQKAGQPPKLLIYWASTFESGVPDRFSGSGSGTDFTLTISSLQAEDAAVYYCQQYHRLPLSFGGGTKVEIK | nd / nd / 5.81 | 5/9 (4.24)
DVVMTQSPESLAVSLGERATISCKSSQSVLGESRNKNSVAWYQQKAGQPPKLLIYWAPTRESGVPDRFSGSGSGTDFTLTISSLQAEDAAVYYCQQYHRLPLSFGGGTKVEIK | nd / nd / nd | 0/9
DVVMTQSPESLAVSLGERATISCKSSQSWLYESRNKNSVAWYQQKAGQPPKLLIYWASTRESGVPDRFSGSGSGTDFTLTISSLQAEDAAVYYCYQYHRQPLSFGGGTKVEIK | 0.23 / 0.52 / 0.44 | 3/9 (4.50)
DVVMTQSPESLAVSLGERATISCKSSQSVQYEDRNKNSVAWYQQKAGQPPKLLIYWARTRESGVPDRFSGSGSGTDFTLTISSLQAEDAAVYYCQQYHRLPLSFGGGTKVEIK | 1.23 / 1.32 / 1.19 | 1/9 (5.01)
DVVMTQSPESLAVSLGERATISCKSSQSVWYESRNKNSVAWYQQKAGQPPKLLIYWCSTRESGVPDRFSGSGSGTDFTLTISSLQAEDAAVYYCQTYHRLPLSFGGGTKVEIK | nd / 2.27 / nd | 0/9
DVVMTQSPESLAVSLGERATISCKSSQSVLYESRNKNDVAWYQQKAGQPPKLLIYWDSTRESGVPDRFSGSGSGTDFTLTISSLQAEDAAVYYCYQYHRLPLSFGGGTKVEIK | 4.16 / 2.97 / nd | 2/9 (3.75)
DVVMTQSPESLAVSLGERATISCKSSPWVLYESRNKNSVTWYQQKAGQPPKLLIYWASTRESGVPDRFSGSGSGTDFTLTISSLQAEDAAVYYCQQYHRLPLSFGGGTKVEIK | nd / nd / nd | 1/9 (1.52)
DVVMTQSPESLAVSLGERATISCKSSQSELYESRNKNSPAWYQQKAGQPPKLLIYWASTRESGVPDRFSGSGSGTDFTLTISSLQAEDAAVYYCQYYHRLPLSFGGGTKVEIK | 3.93 / 3.46 / nd | 0/9
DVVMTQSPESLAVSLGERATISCKSSQSVLYESRNKNSVAWYQQKAGQPPKLLIYWASTRERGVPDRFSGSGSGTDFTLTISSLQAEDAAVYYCRQYHRLFLSFGGGTKVEIK | 5.65 / nd / nd | 0/9
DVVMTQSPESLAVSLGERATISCKSSQSVLYESRNKNSVAWYQQKAGQPPKLLIYWLSTRESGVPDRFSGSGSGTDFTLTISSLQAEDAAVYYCQIYHRLPLYFGGGTKVEIK | 2.62 / 3.93 / 5.65 | 2/9 (4.11)
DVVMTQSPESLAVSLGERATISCKSSMSPLYESANKNSVAWYQQKAGQPPKLLIYWASTRESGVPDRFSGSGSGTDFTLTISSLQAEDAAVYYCQQYHRLPLSFGGGTKVEIK | 0.55 / 0.89 / 0.80 | 0/9
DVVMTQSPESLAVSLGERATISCKSTQSVLYESRNKNSVAWYQQKAGQPPKLLIYWASTRESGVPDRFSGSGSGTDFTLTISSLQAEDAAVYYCQQYHRLPLKFGGGTKVEIK | 3.28 / 2.80 / 3.54 | 1/9 (4.32)
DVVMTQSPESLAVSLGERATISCKSSQSVLYESRNKNSVAWYQQKAGQPPKLLIYWASHRGSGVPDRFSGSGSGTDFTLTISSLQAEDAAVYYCQQYIRLPLSFGGGTKVEIK | 1.62 / 1.93 / 1.90 | 0/9
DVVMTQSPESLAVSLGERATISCKKSQSVLYCSRNKNSVAWYQQKAGQPPKLLIYWASTRESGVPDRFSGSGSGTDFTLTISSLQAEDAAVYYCQQYHRIPLSFGGGTKVEIK | 2.04 / 2.03 / 2.10 | 1/9 (4.53)
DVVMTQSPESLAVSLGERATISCKSSQSVLYESRNKNSVAWYQQKAGQPPKLLIYWASNRESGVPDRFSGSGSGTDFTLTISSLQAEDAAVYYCMQYHRLPLAFGGGTKVEIK | 1.38 / 1.33 / 1.33 | 2/9 (3.75)

For reference, 2 entries of the list once more:

| VL | log10 Kd (nM) by replicate | signal with controls |
|---|---|---|
| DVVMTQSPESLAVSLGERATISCKSSQSVLYESRNKNSVAWYQQKAGQPPKLLIYWASTRERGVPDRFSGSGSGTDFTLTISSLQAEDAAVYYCRQYHRLFLSFGGGTKVEIK | 5.65 / nd / nd | 0/9 |
| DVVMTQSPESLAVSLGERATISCKSSQSVLGESRNKNSVAWYQQKAGQPPKLLIYWAPTRESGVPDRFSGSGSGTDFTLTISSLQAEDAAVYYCQQYHRLPLSFGGGTKVEIK | nd / nd / nd | 0/9 |

Background: pairings of library AAYL50 with three empty control strains gave a value in 18% of cases (median 4.19, 5th percentile 2.99). Values in that range, when seen in few replicates, are hard to tell from nonspecific mating. The control count says in how many pairings with the empty strains this scFv gave a signal, with their mean in brackets. For reference, the parent read 0.65 as the reference entry and 1.68 as a member of this library.